Test results reported in US20190231847A1, “TREATMENT OF OCULAR DISEASE” (priority 2016, published 2019).

Experiments:
retinal inflammation [1] = assay: Mouse EAU model, histopathology (H&E) and histological score; assay type: in vivo, C57BL/6J mice; conditions: ALM201 3 mg/kg; Dexamethasone 0.5 mg/kg; Dexamethasone 0.5 mg/kg+ALM201 0.3 mg/kg
Text: On day 24 p.i., fundus images were taken from all experimental mice using the TEFI system. Mice were then sacrificed by CO2 inhalation and eyes were carefully removed. All eyes were fixed in 2.5% (w/v) glutaraldehyde (Agar Scientific Ltd, Cambridge, UK) for 2 days at room temperature. Eyes were embedded in paraffin for standard H&E staining. Histological scores of retinal inflammation were graded using a standard scoring system described previously (Dick A. D., Cheng Y. F., Liversidge J., Forrester J. V., 1994. Immunomodulation of experimental autoimmune uveoretinitis: a model of tolerance induction with retinal antigens. Eye 8 (Pt 1), 52-59, incorporated herein by reference). Retinal sections from at least three different layers from each eye were used for histopathological analysis. The average score from three layers was used as the final pathological score of the eye.

retinal inflammation [2] = assay: Mouse experimental autoimmune uveitis (EAU) model, clinical score from fundus images (TEFI); conditions: day 24 p.i.; ALM201 3 mg/kg; Dexamethasone 0.5 mg/kg; ALM201 0.3 mg/kg+Dexamethasone 0.5 mg/kg

IRQQPRDPPTETLELEVSPDPAS (listed as Homo Sapiens) [ALM201]
Retinal histology in eyes with mild inflammation prior to treatment (retinal inflammation [1]): only few infiltrating cells were observed and retinal structures including POS were largely preserved
Retinal histology in eyes with severe inflammation prior to treatment (retinal inflammation [1]): a few infiltrating cells with retinal scars were observed
Large infiltrates around retinal blood vessels in fundus images (retinal inflammation [2]): rarely observed
